Measurements reported in patent publication US6583175B2, “Alkylxanthates and use of alkylxanthates in the integrated pest management” (Council of Scientific & Industrial Research, priority 2001, dated 2003).
Like-named read-outs stand apart in the source and are kept apart here.

How the values were obtained:
Spodoptera litura [1] = details: topical
Aedes aegypti = assay: Larvicidal activity against IV instar larvae of Aedes aegypti; assay type: in vivo; details: 24 hours
[2] = tested on: Brine shrimp, Artemia salina; assay: Brine shrimp bioassay (toxic activity); details: Artemia salina nauplii, 24 hours
Spodoptera litura [3] = assay: Antifeedant activity against late third instar of Spodoptera litura (leaf disk, oral feeding); assay type: in vivo; details: for Concentration required for 50% leaf protection EC50 ± S.E.: late third instar
Helicoverpa armigera = details: topical

## m-Fluorobenzyl isobutylxanthate
Spodoptera litura [1]; 5 μg/Insect
  Adult emergence: Abnormal adults: 32
  Adult emergence: Intermediates: 2
  Adult emergence: Non-emergence: 0
  Adult emergence: Normal adults: 50
  Larval mortality (%): 3%
  Pupal Formation: Abnormal pupa: 24
  Pupal Formation: Normal pupa: 73
  Pupal Formation: Pupal Mortality: 3
Spodoptera litura [1]; 10 μg/Insect
  Adult emergence: Abnormal adults: 29
  Adult emergence: Intermediates: 4
  Adult emergence: Non-emergence: 1
  Adult emergence: Normal adults: 49
  Larval mortality (%): 10%
  Pupal Formation: Abnormal pupa: 32
  Pupal Formation: Normal pupa: 58
  Pupal Formation: Pupal Mortality: 8
Spodoptera litura [1]; 20 μg/Insect
  Adult emergence: Abnormal adults: 22
  Adult emergence: Intermediates: 8
  Adult emergence: Non-emergence: 0
  Adult emergence: Normal adults: 39
  Larval mortality (%): 27%
  Pupal Formation: Abnormal pupa: 30
  Pupal Formation: Normal pupa: 43
  Pupal Formation: Pupal Mortality: 4
Spodoptera litura [1]; 35 μg/Insect
  Adult emergence: Abnormal adults: 14
  Adult emergence: Intermediates: 6
  Adult emergence: Non-emergence: 0
  Adult emergence: Normal adults: 17
  Larval mortality (%): 56%
  Pupal Formation: Abnormal pupa: 19
  Pupal Formation: Normal pupa: 25
  Pupal Formation: Pupal Mortality: 7
Spodoptera litura [1]; 50 μg/Insect
  Adult emergence: Abnormal adults: 11
  Adult emergence: Intermediates: 5
  Adult emergence: Non-emergence: 4
  Adult emergence: Normal adults: 3
  Larval mortality (%): 70%
  Pupal Formation: Abnormal pupa: 15
  Pupal Formation: Normal pupa: 13
  Pupal Formation: Pupal Mortality: 9
Spodoptera litura [1]; 75 μg/Insect
  Adult emergence: Abnormal adults: 3
  Adult emergence: Intermediates: 1
  Adult emergence: Non-emergence: 2
  Adult emergence: Normal adults: 0
  Larval mortality (%): 83%
  Pupal Formation: Abnormal pupa: 8
  Pupal Formation: Normal pupa: 9
  Pupal Formation: Pupal Mortality: 13
Spodoptera litura [1]; 100 μg/Insect
  Adult emergence: Abnormal adults: 0
  Adult emergence: Intermediates: 0
  Adult emergence: Non-emergence: 0
  Adult emergence: Normal adults: 0
  Larval mortality (%): 96%
  Pupal Formation: Abnormal pupa: 4
  Pupal Formation: Normal pupa: 0
  Pupal Formation: Pupal Mortality: 4
Aedes aegypti
  LC50 ± S.E.: 11.78 ± 2.35 µg/mL
[2]
  LC50 ± S.E.: 22.54 ± 3.26 µg/mL
Spodoptera litura [3]; 10 μg/sq. cm.
  A.I. (Anti-feedent Index): 11.63
  Percent leaf consumption 12 hr: 50.4%
  Percent leaf consumption 24 hr: 75.2%
Spodoptera litura [3]; 15 μg/sq. cm.
  A.I. (Anti-feedent Index): 16.07
  Percent leaf consumption 12 hr: 33.24%
  Percent leaf consumption 24 hr: 68.7%
Spodoptera litura [3]; 20 μg/sq. cm.
  A.I. (Anti-feedent Index): 27.86
  Percent leaf consumption 12 hr: 24.7%
  Percent leaf consumption 24 hr: 53.6%
Spodoptera litura [3]; 25 μg/sq. cm.
  A.I. (Anti-feedent Index): 48.67
  Percent leaf consumption 12 hr: 12.5%
  Percent leaf consumption 24 hr: 32.8%
Spodoptera litura [3]
  Concentration required for 50% leaf protection EC50 ± S.E.: 19.65 ± 2.99 μg/cm^2

## m-Fluorobenzyl n-butylxanthate
Aedes aegypti
  LC50 ± S.E.: 12.53 ± 1.24 µg/mL
[2]
  LC50 ± S.E.: 19.00 ± 2.83 µg/mL

## p-Xylene Bis (n-butylxanthate)
Helicoverpa armigera; 20 μg/Insect
  Adult emergence: Abnormal adults: 19
  Adult emergence: Intermediates: 7
  Adult emergence: Non emergence: 5
  Adult emergence: Normal adults: 33
  Larval mortality (%): 18%
  Pupal Formation: Abnormal pupa: 27
  Pupal Formation: Normal pupa: 39
  Pupal Formation: Pupal Mortality: 16
Helicoverpa armigera; 35 μg/Insect
  Adult emergence: Abnormal adults: 12
  Adult emergence: Intermediates: 3
  Adult emergence: Non emergence: 6
  Adult emergence: Normal adults: 9
  Larval mortality (%): 42%
  Pupal Formation: Abnormal pupa: 18
  Pupal Formation: Normal pupa: 12
  Pupal Formation: Pupal Mortality: 28
Helicoverpa armigera; 50 μg/Insect
  Adult emergence: Abnormal adults: 13
  Adult emergence: Intermediates: 5
  Adult emergence: Non emergence: 4
  Adult emergence: Normal adults: 5
  Larval mortality (%): 56%
  Pupal Formation: Abnormal pupa: 13
  Pupal Formation: Normal pupa: 10
  Pupal Formation: Pupal Mortality: 21
Helicoverpa armigera; 75 μg/Insect
  Adult emergence: Abnormal adults: 2
  Adult emergence: Intermediates: 2
  Adult emergence: Non emergence: 8
  Adult emergence: Normal adults: 0
  Larval mortality (%): 71%
  Pupal Formation: Abnormal pupa: 7
  Pupal Formation: Normal pupa: 5
  Pupal Formation: Pupal Mortality: 17
Helicoverpa armigera; 100 μg/Insect
  Adult emergence: Abnormal adults: 1
  Adult emergence: Intermediates: 1
  Adult emergence: Non emergence: 4
  Adult emergence: Normal adults: 0
  Larval mortality (%): 85%
  Pupal Formation: Abnormal pupa: 6
  Pupal Formation: Normal pupa: 0
  Pupal Formation: Pupal Mortality: 15
Spodoptera litura [1]; 5 μg/Insect
  Adult emergence: Abnormal adults: 29
  Adult emergence: Intermediates: 10
  Adult emergence: Non-emergence: 0
  Adult emergence: Normal adults: 59
  Larval mortality (%): 0%
  Pupal Formation: Abnormal pupa: 15
  Pupal Formation: Normal pupa: 85
  Pupal Formation: Pupal Mortality: 2
Spodoptera litura [1]; 10 μg/Insect
  Adult emergence: Abnormal adults: 38
  Adult emergence: Intermediates: 10
  Adult emergence: Non-emergence: 1
  Adult emergence: Normal adults: 44
  Larval mortality (%): 5%
  Pupal Formation: Abnormal pupa: 23
  Pupal Formation: Normal pupa: 72
  Pupal Formation: Pupal Mortality: 3
Spodoptera litura [1]; 20 μg/Insect
  Adult emergence: Abnormal adults: 36
  Adult emergence: Intermediates: 14
  Adult emergence: Non-emergence: 5
  Adult emergence: Normal adults: 25
  Larval mortality (%): 20%
  Pupal Formation: Abnormal pupa: 21
  Pupal Formation: Normal pupa: 59
  Pupal Formation: Pupal Mortality: 5
Spodoptera litura [1]; 35 μg/Insect
  Adult emergence: Abnormal adults: 17
  Adult emergence: Intermediates: 2
  Adult emergence: Non-emergence: 4
  Adult emergence: Normal adults: 9
  Larval mortality (%): 59%
  Pupal Formation: Abnormal pupa: 29
  Pupal Formation: Normal pupa: 12
  Pupal Formation: Pupal Mortality: 13
Spodoptera litura [1]; 50 μg/Insect
  Adult emergence: Abnormal adults: 13
  Adult emergence: Intermediates: 3
  Adult emergence: Non-emergence: 1
  Adult emergence: Normal adults: 2
  Larval mortality (%): 71%
  Pupal Formation: Abnormal pupa: 21
  Pupal Formation: Normal pupa: 8
  Pupal Formation: Pupal Mortality: 14
Spodoptera litura [1]; 75 μg/Insect
  Adult emergence: Abnormal adults: 2
  Adult emergence: Intermediates: 2
  Adult emergence: Non-emergence: 2
  Adult emergence: Normal adults: 0
  Larval mortality (%): 86%
  Pupal Formation: Abnormal pupa: 11
  Pupal Formation: Normal pupa: 3
  Pupal Formation: Pupal Mortality: 10
Spodoptera litura [1]; 100 μg/Insect
  Adult emergence: Abnormal adults: 0
  Adult emergence: Intermediates: 1
  Adult emergence: Non-emergence: 2
  Adult emergence: Normal adults: 0
  Larval mortality (%): 95%
  Pupal Formation: Abnormal pupa: 5
  Pupal Formation: Normal pupa: 0
  Pupal Formation: Pupal Mortality: 4
Aedes aegypti
  LC50 ± S.E.: 7.35 ± 0.51 µg/mL
[2]
  LC50 ± S.E.: 45.23 ± 5.63 µg/mL
Spodoptera litura [3]; 10 μg/sq. cm.
  A.I. (Anti-feedent Index): 2.59
  Percent leaf consumption 12 hr: 57.3%
  Percent leaf consumption 24 hr: 90.2%
Spodoptera litura [3]; 15 μg/sq. cm.
  A.I. (Anti-feedent Index): 5.97
  Percent leaf consumption 12 hr: 62.4%
  Percent leaf consumption 24 hr: 84.3%
Spodoptera litura [3]; 20 μg/sq. cm.
  A.I. (Anti-feedent Index): 24.51
  Percent leaf consumption 12 hr: 35.2%
  Percent leaf consumption 24 hr: 57.6%
Spodoptera litura [3]; 25 μg/sq. cm.
  A.I. (Anti-feedent Index): 58.86
  Percent leaf consumption 12 hr: 20.5%
  Percent leaf consumption 24 hr: 24.6%
Spodoptera litura [3]
  Concentration required for 50% leaf protection EC50 ± S.E.: 29.45 ± 1.76 μg/cm^2
